The values that follow come from patent publication US12478623B2 (INTRA-CELLULAR THERAPIES, INC., priority 2019, dated 2025).

Only a part of the results on these compounds is given; other tests are left out.

One experiment relates to healthy individuals. The note with it: double-blind; cited from earlier work.
For another experiment, the system named is rats. Conditions: cited from earlier work.
The subject of experiment [1] is ketamine induced hyperactivity. Conditions: single dose; cited from earlier work.
In experiment [2] the test system is memory deficits caused by ketamine. The note with it: single dose, ketamine-induced deficits; cited from earlier work.
A further experiment deals with freely moving rats. Kind of experiment: Regional dopamine release in freely moving rats. Conditions: SNP with risperidone.

As to sodium nitroprusside, the “Psychotomimetic symptoms induced by ketamine” value with healthy individuals was “reduced psychotomimetic symptoms induced by ketamine”. Besides, the PCP induced hyperactivity entry in the experiment with rats is “completely abolished phencyclidine (PCP) induced hyperactivity”. Besides, the Ketamine induced hyperactivity entry in experiment [1] is listed as “prevent ketamine induced hyperactivity up to a week after the SNP injection”. For the same substance, the “Memory deficits in the novel object recognition test” value in experiment [2] is reported as “restored memory deficits caused by ketamine”. The “Risperidone-induced dopamine release in the nucleus accumbens” value in the experiment with freely moving rats (NAc) is on record as “not in the nucleus accumbens”. The “Risperidone-induced dopamine release in the mPFC” value in the experiment on freely moving rats (mPFC) is on record as “significantly enhances the risperidone-induced dopamine release in the mPFC”.
